These results are taken from ChEMBL document CHEMBL1147940, “Differential receptor binding characteristics of consecutive phenylalanines in micro-opioid specific peptide ligand endomorphin-2” (Bioorg Med Chem, 2007).

Chains of the proteins cited; added tags and fusions are not shown.
UniProt P33535, whole entry: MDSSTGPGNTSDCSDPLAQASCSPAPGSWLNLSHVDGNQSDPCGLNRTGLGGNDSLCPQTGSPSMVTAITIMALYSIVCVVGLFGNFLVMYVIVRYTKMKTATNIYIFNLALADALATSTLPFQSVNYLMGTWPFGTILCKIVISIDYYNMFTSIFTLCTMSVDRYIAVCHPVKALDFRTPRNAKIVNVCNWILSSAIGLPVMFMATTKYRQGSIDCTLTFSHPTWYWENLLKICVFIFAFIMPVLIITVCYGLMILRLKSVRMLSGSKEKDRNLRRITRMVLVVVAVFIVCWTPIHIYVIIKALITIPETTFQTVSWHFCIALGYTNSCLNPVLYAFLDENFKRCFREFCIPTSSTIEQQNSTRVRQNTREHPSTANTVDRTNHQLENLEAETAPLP

As a reminder, the IC50 is the concentration that inhibits the measured activity by half. Read a low IC50 as higher potency.

For the test, the target named is Mu-type opioid receptor (Rattus norvegicus, UniProt P33535). Put plainly: Displacement of [3H]DAGO from mu opioid receptor in rat brain membrane. In kind it is cell membranes. Background: Loss of bound radioactivity is the signal in a displacement assay; it reports binding, not function.

Compound `C[C@@H](NC(=O)[C@@H](N)Cc1ccc(O)cc1)C(=O)NCC(=O)N(C)[C@@H](Cc1ccccc1)C(=O)NCCO` [DAMGO] registered an IC50 of 1.13 nM.
